Source: US20230203204A1

Amino acid sequences for entries named in this document (tags omitted). Residues count along the entry.
UniProt P50591, 114-281 limits assumed: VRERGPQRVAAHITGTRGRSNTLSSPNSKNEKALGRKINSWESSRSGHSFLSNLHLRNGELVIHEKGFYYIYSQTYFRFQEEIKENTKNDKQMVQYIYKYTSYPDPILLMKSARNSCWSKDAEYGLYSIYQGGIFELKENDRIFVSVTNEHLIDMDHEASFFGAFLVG

Target: rhTRAIL (Histidine tag, R&D Systems) (human) (UniProt P50591)
Test: cell-based or functional assay

Question: For “Recombinant human OPG-Fc fusion protein (Novo Protein) (from UniProt O00300 22-401)”, which inhibition of rhTRAIL-induced apoptosis of L929 cells (crystal violet staining) is on record?
Answer: 0.27 nM
